Reference: article PMC7664906 (International Journal of Molecular Sciences, 2020)
Entries after “also recorded” stand apart in the source; their conditions may differ.

Amino acid sequences for entries named in this document (tags omitted).
UniProt P42892, whole entry, species assumed: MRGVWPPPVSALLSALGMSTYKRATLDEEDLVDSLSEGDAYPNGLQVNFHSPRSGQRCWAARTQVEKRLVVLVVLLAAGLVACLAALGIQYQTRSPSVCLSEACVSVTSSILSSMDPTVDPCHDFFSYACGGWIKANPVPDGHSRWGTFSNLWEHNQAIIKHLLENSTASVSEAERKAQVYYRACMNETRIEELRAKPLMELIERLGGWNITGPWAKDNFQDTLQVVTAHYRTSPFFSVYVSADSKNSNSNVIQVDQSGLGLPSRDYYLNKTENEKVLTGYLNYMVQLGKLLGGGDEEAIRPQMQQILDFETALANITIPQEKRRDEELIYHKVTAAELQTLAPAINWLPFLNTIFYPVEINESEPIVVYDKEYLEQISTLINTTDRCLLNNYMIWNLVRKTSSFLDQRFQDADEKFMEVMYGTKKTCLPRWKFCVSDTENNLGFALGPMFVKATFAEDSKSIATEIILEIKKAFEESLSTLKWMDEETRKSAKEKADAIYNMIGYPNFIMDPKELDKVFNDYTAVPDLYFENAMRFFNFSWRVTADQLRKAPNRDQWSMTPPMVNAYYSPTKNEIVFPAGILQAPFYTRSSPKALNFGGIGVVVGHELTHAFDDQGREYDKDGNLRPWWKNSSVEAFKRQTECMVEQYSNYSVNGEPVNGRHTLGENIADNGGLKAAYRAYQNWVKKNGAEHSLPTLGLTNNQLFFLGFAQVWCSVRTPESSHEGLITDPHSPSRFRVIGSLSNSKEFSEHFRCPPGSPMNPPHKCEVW

Molecular target: ECE-1 (Homo sapiens, UniProt P42892)
Settings: 10 nmol peptide in 750 µl 0.2 M acetate buffer pH 5.5 (GLP-1 also at neutral pH), 0.25 µg recombinant ECE-1, 37 °C, up to 24 h, RP-HPLC C18, UV 214 nm, peak area with versus without enzyme, n = 2-3

For `CC[C@H](C)[C@H](NC(=O)[C@H](Cc1ccccc1)NC(=O)[C@H](CCC(=O)O)NC(=O)[C@H](CCCCN)NC(=O)[C@H](C)NC(=O)[C@H](C)NC(=O)[C@H](CCC(N)=O)NC(=O)CNC(=O)[C@H](CCC(=O)O)NC(=O)[C@H](CC(C)C)NC(=O)[C@H](Cc1ccc(O)cc1)NC(=O)[C@H](CO)NC(=O)[C@H](CO)NC(=O)[C@@H](NC(=O)[C@H](CC(=O)O)NC(=O)[C@H](CO)NC(=O)[C@@H](NC(=O)[C@H](Cc1ccccc1)NC(=O)[C@@H](NC(=O)CNC(=O)[C@H](CCC(=O)O)NC(=O)[C@H](C)NC(=O)[C@@H](N)Cc1c[nH]cn1)[C@@H](C)O)[C@@H](C)O)C(C)C)C(=O)N[C@@H](C)C(=O)N[C@@H](Cc1c[nH]c2ccccc12)C(=O)N[C@@H](CC(C)C)C(=O)N[C@H](C(=O)N[C@@H](CCCCN)C(=O)NCC(=O)N[C@@H](CCCNC(=N)N)C(=O)N1CCC[C@H]1C(=O)N[C@@H](CO)C(=O)N[C@@H](CO)C(=O)NCC(=O)N[C@@H](C)C(=O)N1CCC[C@H]1C(=O)N1CCC[C@H]1C(=O)N1CCC[C@H]1C(=O)N[C@@H](CO)C(N)=O)C(C)C` [Chi1], the “In vitro peptide degradation by / resistance to ECE-1 (in words)” value was “partial increase in ECE-1 resistance; also recorded: ECE-1-sensitive”.
